From PubChem BioAssay AID1508608 (The Scripps Research Institute Molecular Screening Center, 2020)
The entries are a selection whose mix differs from that of the whole data set. Active and inactive are the calls of the source.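 The calls were made as follows: active = mean activation across replicates above 26.72%, the hit cutoff set for this confirmation screen; inactive = the rest.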

Chains of the proteins cited; added tags and fusions are not shown.
UniProt Q8TDV0, whole entry: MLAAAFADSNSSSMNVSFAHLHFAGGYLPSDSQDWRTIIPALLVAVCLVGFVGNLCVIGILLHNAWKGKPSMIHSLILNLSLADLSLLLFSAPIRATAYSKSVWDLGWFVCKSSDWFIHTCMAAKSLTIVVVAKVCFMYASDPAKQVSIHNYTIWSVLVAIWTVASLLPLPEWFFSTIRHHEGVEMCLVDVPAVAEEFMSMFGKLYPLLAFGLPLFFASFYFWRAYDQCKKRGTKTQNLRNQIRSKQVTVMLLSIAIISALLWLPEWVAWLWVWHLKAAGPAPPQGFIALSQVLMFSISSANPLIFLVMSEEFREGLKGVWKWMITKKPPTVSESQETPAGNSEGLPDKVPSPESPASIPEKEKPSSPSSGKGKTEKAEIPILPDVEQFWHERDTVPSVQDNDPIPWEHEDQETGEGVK

Target: G-protein coupled receptor 151 (Homo sapiens) (UniProt Q8TDV0)
Assay: GPR151 activators, triplicate retest, confirmation, cell-based, PathHunter beta-arrestin, luminescence, set 2 (AID 1508608);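 also: 0% = plate median of compound wells and 100% = EA reagent high control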
Conditions: GPR151 PathHunter beta-arrestin cells, 90 min, at 11.2 µM, stronger effect = higher value, 100% = signal from added EA reagent

Structure (SMILES)	activation
CCCN1CCC(Nc2ccc(Cl)cc2)CC1	inactive: 7.14%
